Assay results reported in patent US12091425B2 (AMGEN INC., priority 2016, dated 2024).
Read-outs that look alike come from different tables or passages of the source.

Chains of the proteins cited; added tags and fusions are not shown. Residues count along the entry.
UniProt Q07820, 171-327 limits assumed: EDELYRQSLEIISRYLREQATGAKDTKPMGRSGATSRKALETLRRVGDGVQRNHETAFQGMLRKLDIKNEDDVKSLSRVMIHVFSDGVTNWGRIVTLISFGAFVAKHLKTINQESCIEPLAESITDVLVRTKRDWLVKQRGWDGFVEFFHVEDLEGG

Legend:
[1] = target: Mcl-1/Bim interaction, recombinant human Mcl-1 (171-327) (Homo sapiens, UniProt Q07820); assay: Cell free Mcl-1: Bim Affinity Assay (Mcl-1 HTRF); format: binding; details: read-out: Mcl-1 HTRF
[2] = system: OPM-2 human multiple myeloma cell line; assay: Cell Viability Assay (OPM-2 10 FBS); format: cell-based
[3] = cell free Mcl-1:Bim TR-FRET, recombinant human Mcl-1 (171-327)
[4] = read-out: OPM-2 10% FBS, OPM-2 cells, 16 h, CellTiter-Glo
[5] = TR-FRET, 0.1 nM Mcl-1 (171-327), 0.05 nM biotin-Bim (51-76)
[6] = read-out: OPM-2 10% FBS, OPM-2 cells, 16 h incubation, CellTiter-Glo

Row | SMILES | IC50 [1, 3] | IC50 [2, 4] | IC50 [1, 5] | IC50 [2, 6]
1 | CC1C/C=C/[C@H](O)[C@@H]2CC[C@H]2CN2C[C@@]3(CCCc4cc(Cl)ccc43)COc3ccc(cc32)C(=O)NS(=O)(=O)C1Cc1cccs1 (single isomer, unassigned) [Example 634] | 11.5 nM | 2140 nM |  | 
2 | CC1C/C=C/[C@H](O)[C@@H]2CC[C@H]2CN2C[C@@]3(CCCc4cc(Cl)ccc43)COc3ccc(cc32)C(=O)NS(=O)(=O)C1Cc1cccs1 (single isomer, unassigned) [Example 635] | 0.984 nM | 98.5 nM |  | 
3 | COC1C/C=C/[C@H](O)[C@@H]2CC[C@H]2CN2C[C@@]3(CCCc4cc(Cl)ccc43)COc3ccc(cc32)C(=O)NS(=O)(=O)C1CC1CCC1 (single isomer, unassigned) [Example 639] | 0.809 nM | 348 nM |  | 
4 | COC1C/C=C/[C@H](O)[C@@H]2CC[C@H]2CN2C[C@@]3(CCCc4cc(Cl)ccc43)COc3ccc(cc32)C(=O)NS(=O)(=O)C1CC1CCC1 (single isomer, unassigned) [Example 640] | 20.9 nM | 5400 nM |  | 
5 | COC1C/C=C/[C@H](OC)[C@@H]2CC[C@H]2CN2C[C@@]3(CCCc4cc(Cl)ccc43)COc3ccc(cc32)C(=O)NS(=O)(=O)C1C (single isomer, unassigned) [Example 714] | 1.81 nM | 1360 nM |  | 
6 | COC1C/C=C/[C@H](OC)[C@@H]2CC[C@H]2CN2C[C@@]3(CCCc4cc(Cl)ccc43)COc3ccc(cc32)C(=O)NS(=O)(=O)C1C (single isomer, unassigned) [Example 715] | 7.26 nM | 13700 nM |  | 
7 | O=C1NS(=O)(=O)CC2CC2/C=C/[C@H](O)[C@@H]2CC[C@H]2CN2C[C@@]3(CCCc4cc(Cl)ccc43)COc3ccc1cc32 (single isomer, unassigned) [Example 802] | 4.51 nM | 3310 nM |  | 
8 | O=C1NS(=O)(=O)CCOC2CCOC(C2)[C@@H]2CC[C@H]2CN2C[C@@]3(CCCc4cc(Cl)ccc43)COc3ccc1cc32 (single isomer, unassigned) [Example 836] | 0.628 nM | 706 nM |  | 
9 | O=C1NS(=O)(=O)CCOC2CCOC(C2)[C@@H]2CC[C@H]2CN2C[C@@]3(CCCc4cc(Cl)ccc43)COc3ccc1cc32 (single isomer, unassigned) [Example 837] | 1.2 nM | 4080 nM |  | 

Next, values leading:

Row | IC50 [1, 3] | IC50 [2, 4] | IC50 [1, 5] | IC50 [2, 6] | SMILES
10 | 2.51 nM | 2760 nM |  |  | C[C@H]1CC=C[C@H](O)[C@@H]2CC[C@H]2CN2C[C@@]3(CCCc4cc(Cl)ccc43)COc3ccc(cc32)C(=O)NS(=O)(=O)C1CC(F)(F)F (single isomer, unassigned) [Example 661]
11 | 1.12 nM | 1390 nM |  |  | C[C@H]1CC=C[C@H](O)[C@@H]2CC[C@H]2CN2C[C@@]3(CCCc4cc(Cl)ccc43)COc3ccc(cc32)C(=O)NS(=O)(=O)C1CC(F)(F)F (single isomer, unassigned) [Example 662]
12 | 2.03 nM | 3910 nM |  |  | CC1C(C2CC2)C/C=C/[C@H](O)[C@@H]2CC[C@H]2CN2C[C@@]3(CCCc4cc(Cl)ccc43)COc3ccc(cc32)C(=O)NS1(=O)=O (single isomer, unassigned) [Example 676]
13 | 8.02 nM | 7290 nM |  |  | CC1C(C2CC2)C/C=C/[C@H](O)[C@@H]2CC[C@H]2CN2C[C@@]3(CCCc4cc(Cl)ccc43)COc3ccc(cc32)C(=O)NS1(=O)=O (single isomer, unassigned) [Example 678]
14 | 17.3 nM | 23500 nM |  |  | COC1C/C=C/[C@H](OC)[C@@H]2CC[C@H]2CN2C[C@@]3(CCCc4cc(Cl)ccc43)COc3ccc(cc32)C(=O)NS(=O)(=O)C1C (single isomer, unassigned) [Example 716]
15 | 1.51 nM | 1900 nM |  |  | O=C1NS(=O)(=O)C2CC2C/C=C/[C@H](O)[C@@H]2CC[C@H]2CN2C[C@@]3(CCCc4cc(Cl)ccc43)COc3ccc1cc32 (single isomer, unassigned) [Example 794]
16 | 0.38 nM | 392 nM |  |  | O=C1NS(=O)(=O)C2CC2C/C=C/[C@H](O)[C@@H]2CC[C@H]2CN2C[C@@]3(CCCc4cc(Cl)ccc43)COc3ccc1cc32 (single isomer, unassigned) [Example 795]
17 |  |  | 0.178 nM | 116 nM | CC1/C=C/C(O)[C@@H]2CC[C@H]2CN2C[C@@]3(CCCc4cc(Cl)ccc43)COc3ccc(cc32)C(=O)NS(=O)(=O)CC1C (single isomer, unassigned) [Example 1060]
18 |  |  | 11.3 nM | 18400 nM | CC1/C=C/C(O)[C@@H]2CC[C@H]2CN2C[C@@]3(CCCc4cc(Cl)ccc43)COc3ccc(cc32)C(=O)NS(=O)(=O)CC1C (single isomer, unassigned) [Example 1063]
